Where two headings read alike, the source gives them in different places.
System: annexin V in A549 cells
Details: reference 4.0 μM camptothecin or 1.0 μM staurosporin
From the text: Assays that measure apoptosis are utilized to determine whether or not compounds can induce programmed cell death in cancer cells. Annexin V is a protein that is used to detect apoptosis by binding to phosphatidylserine expressed on membranes of dead or dying cells. Fluorescently tagged with FITC, it can he used in conjunction with 7-aminoactinomycin D to determine the percentage of cells undergoing apoptosis via flow cytometry. Cells in early apoptosis will emit an FITC signal which will eventually be replaced by the far red 7-AAD signal that is associated with cell membrane permeability due to necrosis.
In brief, for the Annexin V Assay, compounds were added to cells plated in 6-well plates. Treated cells were incubated for up to 30 hours before addition of fluorescent cell marker probes that detect the presence of annexin V. The percentage of cells undergoing apoptosis and necrosis were determined by flow cytometry.
On day 2, working solutions of compounds (at 1000×) were prepared. […]
For flow cytometry analysis of the Annexin V Assay, sample acquisition was on the BD LSR II manufactured by BD Biosciences, San Jose, Calif. […] Percent (%)Total apoptosis was calculated as early (quadrant 4)+late (quadrant 2). Percent (%) ratio apoptosis was calculated as (experimental-No treatment/positive control)*100. […]

Which results are given for `Cc1cc(Cl)cnc1NC(c1cccc(Cl)c1Cl)c1ccc2cccnc2c1O` (centres unmarked) [AD4-13147]?
% Relative to Reference Cpd. (1 μM): 95%; % Relative to Reference Cpd. (10 μM): 92%

Source: patent publication US9073858B2, “Methods of targeted drug development” (priority 2010, dated 2015)
